# Binding of CDR-mutated scFvs to a peptide of the spike HR2 region

Binding partner: SARS-CoV-2 spike HR2 peptide, sequence PDVDLGDISGINAS.

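AAYL51 was designed without a model: most single CDR substitutions and a random sample of double and triple ones. The assay is AlphaSeq: two haploid yeast populations carry antibody and antigen on their surface. Pairs that bind mate more often; barcode pairs of the diploids are counted by sequencing. Read counts were normalised to the haploid input and turned into Kd by a linear fit to BCL2-family pairs of known affinity, for each replicate. The assay was run in three technical replicates.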

Each scFv is VL, a (GGGGS)3 linker, VH, as in the parent Ab-91, and differs from it in the CDRs of the heavy chain only.
VL: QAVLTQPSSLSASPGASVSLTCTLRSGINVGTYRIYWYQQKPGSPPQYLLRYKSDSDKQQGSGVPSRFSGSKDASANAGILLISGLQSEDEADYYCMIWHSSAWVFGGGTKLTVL
VH: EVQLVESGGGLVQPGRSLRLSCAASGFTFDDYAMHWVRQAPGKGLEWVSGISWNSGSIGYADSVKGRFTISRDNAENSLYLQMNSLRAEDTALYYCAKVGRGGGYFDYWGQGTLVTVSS

Substitutions are numbered in sequence along the VH above, starting at 1 (not Kabat).
All variants listed here change G50 of the VH, counted from its first residue.
Kd is apparent (estimated from mating counts) and averaged on the log scale over replicates with a signal. Smaller is tighter.
"nd" means that the variant was in the library but no mating with the target was seen in any replicate; the authors take this as a sign of poor binding, and no number exists.
Three control strains display no target. For library AAYL51, 21% of the pairings with them gave a signal, with a median of 34 µM and one signal in twenty below 1.8 µM, so weak values seen in few replicates may be background. For each scFv, signals with the empty controls are counted beside the result.

* M34Q+G50M = nd (0 of 3 replicates; controls 1 of 9)
* G50P+D62P+F106Y = 24 µM (2 of 3 replicates; controls 5 of 9)
* F29K+G50N+S57N = 12 µM (1 of 3 replicates; controls 4 of 9)
* D31K+G50Y+I51V = nd (0 of 3 replicates; controls 1 of 9)
* F29P+G50D+W53R = 310 µM (1 of 3 replicates; controls 1 of 9)
* G50M+G59C+G102H = 350 µM (1 of 3 replicates; controls 2 of 9)
* G50K+V64E+G102V = nd (0 of 3 replicates; controls 0 of 9)
* G50H = 380 µM (1 of 3 replicates; controls 6 of 9)
* G50E+Y60S+V64G = 410 µM (1 of 3 replicates; controls 3 of 9)
* D31A+G50N+G102A = nd (0 of 3 replicates; controls 0 of 9)
* F27L+G50M+A61T = 6.1 µM (1 of 3 replicates; controls 0 of 9)
* G50T+V99L = 13 µM (1 of 3 replicates; controls 5 of 9)
* G50T+N54R+F106Y = 110 µM (3 of 3 replicates; controls 2 of 9)
* G50C = nd (0 of 3 replicates; controls 2 of 9)
* F27K+T28H+G50N = nd (0 of 3 replicates; controls 0 of 9)
* G50A+N54R+V64A = nd (0 of 3 replicates; controls 0 of 9)
* G50M+S55Q+I58K = 300 µM (3 of 3 replicates; controls 7 of 9)
* Y32E+G50M+F106V = 59 µM (2 of 3 replicates; controls 6 of 9)
* G50S+G59Q+G102P = nd (0 of 3 replicates; controls 0 of 9)
* F27T+H35D+G50C = nd (0 of 3 replicates; controls 1 of 9)
* T28P+G50D+S55F = 34 µM (3 of 3 replicates; controls 6 of 9)
* G50W+S63V+Y108P = 6.1 µM (2 of 3 replicates; controls 0 of 9)
* G50A+Y60G+D107E = nd (0 of 3 replicates; controls 0 of 9)
* G50Q+I51W+W53A = 68 µM (1 of 3 replicates; controls 2 of 9)
* D30M+G50A+G59R = 29 µM (1 of 3 replicates; controls 4 of 9)
* T28W+G50R+G102T = nd (0 of 3 replicates; controls 0 of 9)
* G50N+S55P+Y108M = nd (0 of 3 replicates; controls 1 of 9)
* G50F+N54S+G100T = nd (0 of 3 replicates; controls 0 of 9)
* G50C+S52K+G100C = nd (0 of 3 replicates; controls 0 of 9)
* G50S+A61R+G103W = 120 µM (2 of 3 replicates; controls 2 of 9)
* A33T+G50V+W53Q = 7.9 µM (1 of 3 replicates; controls 2 of 9)
* G50D+D107R = nd (0 of 3 replicates; controls 2 of 9)
* T28A+Y32W+G50W = 6.0 µM (1 of 3 replicates; controls 1 of 9)
* G50N+Y105L = 100 µM (1 of 3 replicates; controls 3 of 9)
* H35C+G50C+K65P = 34 µM (2 of 3 replicates; controls 1 of 9)
* D30S+A33G+G50E = 33 µM (2 of 3 replicates; controls 5 of 9)
* G50Q+A61W+G102Y = nd (0 of 3 replicates; controls 0 of 9)
* T28E+G50L+F106G = 87 µM (1 of 3 replicates; controls 0 of 9)
* D31C+G50P = 39 µM (2 of 3 replicates; controls 3 of 9)
* G50F+S57T+I58G = 5.4 µM (1 of 3 replicates; controls 3 of 9)
* G50M+I58D+K65F = 230 µM (2 of 3 replicates; controls 3 of 9)
* D30C+Y32W+G50W = 20 µM (1 of 3 replicates; controls 0 of 9)
* Y32V+G50R+Y60W = 33 µM (1 of 3 replicates; controls 3 of 9)
* F27E+G50D+F106T = nd (0 of 3 replicates; controls 0 of 9)
* F29S+G50E+G100S = 200 µM (2 of 3 replicates; controls 2 of 9)
* T28K+G50Y = 30 µM (1 of 3 replicates; controls 0 of 9)
* H35Y+G50T+D107N = nd (0 of 3 replicates; controls 0 of 9)
* A33G+H35V+G50P = nd (0 of 3 replicates; controls 0 of 9)
* A33F+G50F+V99K = 1.2 µM (2 of 3 replicates; controls 0 of 9)

Reference: Engelhart et al. 2022, doi:10.1038/s41597-022-01779-4. File: FLAb, binding data.